According to US9518085B2, “Compounds and pharmaceutical combinations for the treatment of neurodegenerative and ischemic brain diseases” (CENTRO DE INGENIERÍA GENÉTICA Y BIOTECHNOLOGÍA, priority 2011, dated 2016):

Legend:
[1] = tested on: brain I/R model in Mongolian gerbils; experiment: Brain infarct volume in the bilateral ischemia-reperfusion (I/R) model, transient CCA occlusion; assay type: in vivo; conditions: 24 h after 10 min CCA occlusion, PCB 750 μg/Kg ip, PCB-aa 3.375 mg/kg, alone or combined
Experimental: The animals were treated with saline solution or with an accumulative dose of the PCB-aa peptides (3.375 mg/kg of each one), by intraperitoneal route for 30 min, 3, 6 and 12 h after the ischemic event.
The effectiveness percentage of each treatment was calculated according to the following formula: effectiveness %=(1−Vi/VI/R)×100. Vi: infarct volume of the ischemic group treated with the corresponding product; VI/R: volume of the infarct of the ischemic group treated with saline solution.
The percentage of effectiveness was calculated as described in Example 3.
The evaluation of the therapeutic effect of the combinations and their independent components was carried out. The percentage of effectiveness of each treatment was calculated as described in Example 3.

[2] = tested on: experimental autoinmune encephalomyelitis (EAE) model; experiment: EAE model, prophylactic schedule, clinical index; assay type: in vivo, C57BL6 mice; conditions: Table 2; PCB-aa 3.375 mg/Kg, PCB 750 μg/Kg, IFN-b 500 ng/Kg, alone or combined
Experimental: (§1) In the prophylactic schedule the treatment was performed 15 days before EAE induction and in the therapeutic schedule starting from the beginning of the clinical signs.

EAE model = experiment: EAE model, therapeutic schedule, clinical course (area under the curve); assay type: in vivo, C57BL6 mice; conditions: PCB 750 μg/kg ip, PCB-aa 3.375 mg/kg ip daily 15 days, IFN-b 500 ng/Kg sc 6 doses, alone or combined
Experimental: The percentage of effectiveness of each treatment was calculated according to the following formula: % of effectiveness=(1−ACi/ACEAE)×100. ACi: area under the curve of the group treated with the corresponding product; ACEAE: area under the curve of the EAE group.
as §1

IL-2: Interleukin-2 was tested, and the “effectiveness, reduction of brain infarct volume” value ([1]; IL-2 100 ng/Kg sc) was 25.8%.

B1: IFN-b: beta interferon, type I interferon (protein, UniProt P01574 22-187, looked up)
Interferon beta: MSYNLLGFLQRSSNFQCQKLLWQLNGRLEYCLKDRMNFDIPEEIKQLQQFQKEDAALTIYEMLQNIFAIFRQDSSSTGWNETIVENLLANVYHQINHLKTVLEEKLEKEDFTRGKLMSSLHLKRYYGRILHYLKAKEYSHCAWTIVRVEILRNFYFINRLTGYLRN
For B1, the “Clinical score (Mean ± SD)” value [2] was 1.4 ± 0.2, the “Days of the disease” value [2] was 7.1 ± 0.3 days and the “Incidence (%)” value [2] was 70%. For the same molecule, the “Starting day (Mean ± DS)” value [2] was 12.6 ± 0.5, the “effectiveness, reduction of brain infarct volume” value ([1]; IFN-a/IFN-b 500 ng/Kg sc, 30 min, 3, 6, 12 h after ischemic event) was 37.0% and the “% of effectiveness (area under the curve of clinical index)” value (EAE model) was 34.8%.
